Here are results for one substance from paper PMC8868383, “Pharmacokinetics and Pharmacodynamics of Key Components of a Standardized Centella asiatica Product in Cognitively Impaired Older Adults: A Phase 1, Double-Blind, Randomized Clinical Trial” (Antioxidants, 2022).

A short description of this series: Plasma pharmacokinetics after single oral administration of CAP. As to conditions: all time points, 2 g and 4 g CAP.

Consider asiaticoside, for which the Plasma levels result is on record as “below the lower limit of quantitation (LLOQ)”.
